{"source": "patent US20080280983A1", "about": "“METHODS OF TREATING RETT SYNDROME” (CeNeRx BioPharma, priority 2007, published 2008)", "key": {"CRF-1 receptor [1]": {"molecular_target": "T1, CRF-1 receptor (Rattus norvegicus, UniProt P35353)", "T1 construct": "from tissue; host or cells: living rat, brain (in vivo)", "T1 sequence (P35353 24-415)": "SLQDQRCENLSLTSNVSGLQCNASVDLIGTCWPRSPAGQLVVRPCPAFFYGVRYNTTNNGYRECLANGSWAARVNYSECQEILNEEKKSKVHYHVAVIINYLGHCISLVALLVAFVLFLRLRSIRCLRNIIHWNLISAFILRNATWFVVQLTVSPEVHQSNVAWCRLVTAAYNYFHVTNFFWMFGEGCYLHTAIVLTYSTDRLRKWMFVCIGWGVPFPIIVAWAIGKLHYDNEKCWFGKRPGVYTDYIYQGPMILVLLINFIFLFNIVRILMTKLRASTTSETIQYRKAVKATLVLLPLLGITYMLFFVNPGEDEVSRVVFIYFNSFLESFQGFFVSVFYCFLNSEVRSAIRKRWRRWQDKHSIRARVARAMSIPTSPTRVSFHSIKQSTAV", "conditions": "rodents; cited from earlier work"}, "CRF-1 receptor [2]": {"molecular_target": "T1, CRF-1 receptor", "assay": "Reversal of effects of CRH administered directly into the brain", "assay_type": "in vivo", "conditions": "rats, sub-chronic treatment", "excerpt": "Therefore, its mechanism of action is likely not related to GABA. In attempts to elucidate the mechanism of action it was discovered that pivagabine affects the corticotrophin-releasing hormone (CRH) content of specific brain regions (hypothalamus and cerebral cortex) particularly during stress conditions (application of foot shock in rodents).\nAs mentioned above, stress is known to be associated with release of CRH from the hypothalamus and activation of the HPA axis. This is paralleled by changes in the CRH content of different brain regions and alterations in the expression of messenger RNA (mRNA) for CRH. […] Pivagabine alone reduced the CRH concentration in the hypothalamus by 52%, but had no effect in the cerebral cortex."}}, "data": [{"compound": "CC(C)(C)C(=O)NCCCC(=O)O", "note": "[pivagabine, 4-[(2,2-dimethyl-1-oxopropyl)amino]butanoic acid]", "values": [{"measurement": "reversal of the effects of CRH administered directly into the brain", "setting": "CRF-1 receptor [1]", "result": "does not reverse the effects of CRH"}, {"measurement": "antagonism of intra-cerebroventricular CRH", "setting": "CRF-1 receptor [2]", "result": "not antagonized"}]}]}
